Numbering of substitutions follows the chain as printed.
What was measured:
GIPR A185V = target: T1, GIPR A185V (Homo sapiens, UniProt P48546, A185V); conditions: GIPR A185V (2.62), mean, n = 5, duplicate
T1 sequence (P48546 22-466 A185V): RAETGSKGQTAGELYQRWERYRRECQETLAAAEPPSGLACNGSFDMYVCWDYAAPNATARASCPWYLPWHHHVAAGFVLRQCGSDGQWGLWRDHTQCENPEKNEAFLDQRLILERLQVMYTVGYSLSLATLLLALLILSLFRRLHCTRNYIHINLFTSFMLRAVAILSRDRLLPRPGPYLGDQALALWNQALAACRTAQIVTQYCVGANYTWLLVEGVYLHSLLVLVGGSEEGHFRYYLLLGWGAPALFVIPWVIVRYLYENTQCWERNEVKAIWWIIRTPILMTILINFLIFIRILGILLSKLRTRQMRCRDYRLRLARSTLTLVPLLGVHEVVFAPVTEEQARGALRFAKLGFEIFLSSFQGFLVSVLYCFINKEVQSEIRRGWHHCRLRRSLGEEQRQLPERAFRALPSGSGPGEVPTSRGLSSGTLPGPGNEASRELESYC

GIPR S415I = target: T2, GIPR S415I (Homo sapiens, UniProt P48546, S415I); conditions: GIPR S415I (ICD), mean, n = 3, duplicate
T2 sequence (P48546 22-466 S415I): T1 sequence (P48546 22-466 A185V) with V164A, S394I

GIPR R43G = target: T3, GIPR R43G (Homo sapiens, UniProt P48546, R43G); experiment: cAMP accumulation; assay type: cell-based; parameters: host or cells: HEK293
T3 sequence (P48546 22-466 R43G): T1 sequence (P48546 22-466 A185V) with R22G, V164A

GIPR P195R [1] = target: T4, GIPR P195R (Homo sapiens, UniProt P48546, P195R); experiment: cAMP accumulation; assay type: cell-based; parameters: host or cells: HEK293
T4 sequence (P48546 22-466 P195R): T1 sequence (P48546 22-466 A185V) with V164A, P174R

GIPR R336P = target: T5, GIPR R336P (Homo sapiens, UniProt P48546, R336P); conditions: GIPR R336P (6.35), mean, n = 4, duplicate
T5 sequence (P48546 22-466 R336P): T1 sequence (P48546 22-466 A185V) with V164A, R315P

GIPR P195R [2] = target: T4, GIPR P195R; conditions: GIPR P195R (ECL1), mean, n = 5, duplicate

glucose-dependent insulinotropic polypeptide [GIP]
logEC50 (Arrestin) (GIPR A185V; Hill slope 1.0): -9.0 | Arrestin (Emax) (GIPR A185V; normalized to WT GIPR): 89 | logEC50 (Arrestin) (GIPR S415I; Hill slope 1.0): -9.1 | Arrestin (Emax) (GIPR S415I; normalized to WT GIPR): 93 | cAMP (Emax) (GIPR R43G; HEK293, GIP(1–42) 1 pM–100 nM, 30 min 37 °C, mean of n = 5): 131 % of WT GIPR activity | logEC50 (cAMP) (GIPR R43G; HEK293, Hill slope 1.0, mean of n = 5): -11.2 | cAMP (Emax) (GIPR P195R [1]; HEK293, GIP(1–42) 1 pM–100 nM, 30 min 37 °C, mean of n = 6): 16 % of WT GIPR activity | logEC50 (cAMP) (GIPR P195R [1]; HEK293, Hill slope 1.0, mean of n = 6): -10.4 | logEC50 (Arrestin) (GIPR R336P; Hill slope 1.0): -8.8 | Arrestin (Emax) (GIPR R336P; normalized to WT GIPR): 21 | logEC50 (Arrestin) (GIPR P195R [2]; Hill slope 1.0): -9.0 | Arrestin (Emax) (GIPR P195R [2]; normalized to WT GIPR): 86

Reference: paper PMC11272584 (Nature Metabolism, 2024)
